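The compound was tested at five concentrations on cells cultured in 96-well plates, with a 48-hour exposure period. Abbreviation: GI50, concentration required for 50% inhibition of growth. The concentration for full growth arrest is given as TGI.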
What was measured:
Test in all cases: growth of human tumour cells (NCI), 48 h
NCI-H322M lung = system: NCI-H322M lung
NCI-H460 lung = system: NCI-H460 lung
NCI-H522 lung = system: NCI-H522 lung
NCI/ADR-RES ovarian = system: NCI/ADR-RES ovarian
OVCAR-3 ovarian = system: OVCAR-3 ovarian
OVCAR-4 ovarian = system: OVCAR-4 ovarian
OVCAR-5 ovarian = system: OVCAR-5 ovarian
OVCAR-8 ovarian = system: OVCAR-8 ovarian
PC-3 prostate = system: PC-3 prostate
RPMI-8226 leukemia = system: RPMI-8226 leukemia
SF-268 CNS = system: SF-268 CNS
SF-539 CNS = system: SF-539 CNS
SK-MEL-2 melanoma = system: SK-MEL-2 melanoma
SK-MEL-28 melanoma = system: SK-MEL-28 melanoma
SK-MEL-5 melanoma = system: SK-MEL-5 melanoma
SK-OV-3 ovarian = system: SK-OV-3 ovarian
SN12C renal = system: SN12C renal
SNB-19 CNS = system: SNB-19 CNS
SR leukemia = system: SR leukemia
SW-620 colon = system: SW-620 colon
T-47D breast = system: T-47D breast
TK-10 renal = system: TK-10 renal
U251 CNS = system: U251 CNS
UACC-257 melanoma = system: UACC-257 melanoma
UACC-62 melanoma = system: UACC-62 melanoma
UO-31 renal = system: UO-31 renal

## Cc1ccc(S(=O)(=O)n2cc([C@@]3(O)C[C@H](CC#N)OC3=O)c3ccccc32)cc1
NCI-H322M lung
  GI50: 3.14 µM
  TGI: 28.1 µM
NCI-H460 lung
  GI50: 2520 nM
  TGI: 21.6 µM
NCI-H522 lung
  GI50: 3.18 µM
  TGI: > 100 µM
NCI/ADR-RES ovarian
  GI50: 1420 nM
  TGI: > 100 µM
OVCAR-3 ovarian
  GI50: 1230 nM
  TGI: 5.58 µM
OVCAR-4 ovarian
  GI50: 11.9 µM
  TGI: > 100 µM
OVCAR-5 ovarian
  GI50: 3.79 µM
  TGI: > 100 µM
OVCAR-8 ovarian
  GI50: 2520 nM
  TGI: 11.6 µM
PC-3 prostate
  GI50: 1170 nM
  TGI: > 100 µM
RPMI-8226 leukemia
  GI50: 332 nM
  TGI: 3.33 µM
SF-268 CNS
  GI50: 1510 nM
  TGI: 59.9 µM
SF-539 CNS
  GI50: 352 nM
  TGI: 2250 nM
SK-MEL-2 melanoma
  GI50: 5.34 µM
  TGI: > 100 µM
SK-MEL-28 melanoma
  GI50: 13.7 µM
  TGI: > 100 µM
SK-MEL-5 melanoma
  GI50: 259 nM
  TGI: 12.8 µM
SK-OV-3 ovarian
  GI50: 2260 nM
  TGI: > 100 µM
SN12C renal
  GI50: 1170 nM
  TGI: 69.3 µM
SNB-19 CNS
  GI50: 11.8 µM
  TGI: > 100 µM
SR leukemia
  GI50: 4.52 µM
  TGI: 9.32 µM
SW-620 colon
  GI50: 475 nM
  TGI: > 100 µM
T-47D breast
  GI50: > 100 µM
  TGI: > 100 µM
TK-10 renal
  GI50: 1240 nM
  TGI: 6.78 µM
U251 CNS
  GI50: 1120 nM
  TGI: > 100 µM
UACC-257 melanoma
  GI50: 929 nM
  TGI: 26 µM
UACC-62 melanoma
  GI50: 764 nM
  TGI: 40.4 µM
UO-31 renal
  GI50: 27.6 µM
  TGI: > 100 µM
